Source: patent publication US20230295119A1, “SUBSTITUTED PYRIDINES FOR THE TREATMENT OF INFLAMMATORY DISEASES” (GOSSAMER BIO SERVICES, INC., priority 2020, published 2023)

Sequences of proteins named here, by UniProt entry; tags and fusion partners are left off. Residues count along the entry.
UniProt P29597, 589-875: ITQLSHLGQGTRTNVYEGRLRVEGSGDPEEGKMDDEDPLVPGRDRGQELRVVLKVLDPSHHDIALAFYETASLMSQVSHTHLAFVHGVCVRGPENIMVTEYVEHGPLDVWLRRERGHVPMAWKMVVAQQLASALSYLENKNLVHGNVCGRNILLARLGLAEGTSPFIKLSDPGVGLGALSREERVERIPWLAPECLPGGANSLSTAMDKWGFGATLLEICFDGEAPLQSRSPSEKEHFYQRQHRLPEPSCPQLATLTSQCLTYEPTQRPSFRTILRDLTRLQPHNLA

Biological target: TYK2 JH2 domain (Homo sapiens (Human), UniProt P29597)
Assay: TYK2 JH2 NanoBRET assay
Format: binding
Details: HEK293T cells, Table 19
Description: HEK293T cells were transfected with NanoLuc-TYK2 JH2 Fusion Vector (Promega, customized) using Trans-IT reagent (Mirus, #MIR2700) and incubated for overnight in 37° C. incubator. […] Add 85 µL of cell suspension into white, polypropylene, 96-well plates (Corning, #3600). 90 µL of cells were used for no tracer control samples. 5 µL of diluted NanoBRET K10 tracer (Promega, #CS1810C122) were added to cells to a final concentration of 0.5 µM. Test compounds were diluted into DMSO, and then phenol-free opti-MEM to 10X of final concentration. 10 µL of diluted compounds were added into each well. The cells were incubated with test compound and tracer for 2 hours. 3XNanoBRET® Nano-Glo® Substrate and Extracellular NanoLuc® Inhibitor mixture were prepared and 50 µL of the mixture were added into the wells and mixed. […] NanoBRET signal was determined by using the ratio of acceptor signal and donor signal.

IC50: < 5 nM
Compound: COc1c(Nc2cc(NC(=O)C3CC3)ncc2C(=O)C2CC2)cccc1-c1ncn(C)n1 [Compound 1C]
